Source: patent US20150203498A1, “INHIBITORS OF PHOSPHODIESTERASE 10 ENZYME” (Janssen Pharmaceutica NV, priority 2012, published 2015)
Values joined by “and” are separate entries in the source; they are usually repeats but may differ in a detail not shown here. Equal values may be shown once.

Sequences of proteins named here, by UniProt entry; tags and fusion partners are left off. Residues count along the entry.
UniProt Q9Y233, 267-1055: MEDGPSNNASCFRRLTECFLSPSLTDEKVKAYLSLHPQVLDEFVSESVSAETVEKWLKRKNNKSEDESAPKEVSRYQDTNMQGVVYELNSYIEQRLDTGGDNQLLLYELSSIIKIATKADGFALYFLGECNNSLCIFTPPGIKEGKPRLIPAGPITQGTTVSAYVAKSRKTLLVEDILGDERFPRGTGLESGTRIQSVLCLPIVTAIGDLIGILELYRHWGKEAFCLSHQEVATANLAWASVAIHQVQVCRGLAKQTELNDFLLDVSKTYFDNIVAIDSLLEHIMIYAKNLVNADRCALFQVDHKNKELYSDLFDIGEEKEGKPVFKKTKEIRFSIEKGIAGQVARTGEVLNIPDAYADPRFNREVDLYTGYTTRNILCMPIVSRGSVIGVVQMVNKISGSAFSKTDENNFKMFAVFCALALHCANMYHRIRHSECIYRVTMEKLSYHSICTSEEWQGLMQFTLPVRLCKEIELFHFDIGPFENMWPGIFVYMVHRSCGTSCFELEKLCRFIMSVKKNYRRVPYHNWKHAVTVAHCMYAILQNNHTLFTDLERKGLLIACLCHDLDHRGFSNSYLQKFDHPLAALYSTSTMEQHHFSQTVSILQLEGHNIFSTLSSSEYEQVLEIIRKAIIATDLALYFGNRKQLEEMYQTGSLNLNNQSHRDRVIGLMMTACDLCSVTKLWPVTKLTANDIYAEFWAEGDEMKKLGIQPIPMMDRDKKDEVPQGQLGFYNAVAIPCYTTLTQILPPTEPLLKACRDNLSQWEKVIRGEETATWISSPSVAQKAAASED
UniProt Q9QYJ6, whole entry: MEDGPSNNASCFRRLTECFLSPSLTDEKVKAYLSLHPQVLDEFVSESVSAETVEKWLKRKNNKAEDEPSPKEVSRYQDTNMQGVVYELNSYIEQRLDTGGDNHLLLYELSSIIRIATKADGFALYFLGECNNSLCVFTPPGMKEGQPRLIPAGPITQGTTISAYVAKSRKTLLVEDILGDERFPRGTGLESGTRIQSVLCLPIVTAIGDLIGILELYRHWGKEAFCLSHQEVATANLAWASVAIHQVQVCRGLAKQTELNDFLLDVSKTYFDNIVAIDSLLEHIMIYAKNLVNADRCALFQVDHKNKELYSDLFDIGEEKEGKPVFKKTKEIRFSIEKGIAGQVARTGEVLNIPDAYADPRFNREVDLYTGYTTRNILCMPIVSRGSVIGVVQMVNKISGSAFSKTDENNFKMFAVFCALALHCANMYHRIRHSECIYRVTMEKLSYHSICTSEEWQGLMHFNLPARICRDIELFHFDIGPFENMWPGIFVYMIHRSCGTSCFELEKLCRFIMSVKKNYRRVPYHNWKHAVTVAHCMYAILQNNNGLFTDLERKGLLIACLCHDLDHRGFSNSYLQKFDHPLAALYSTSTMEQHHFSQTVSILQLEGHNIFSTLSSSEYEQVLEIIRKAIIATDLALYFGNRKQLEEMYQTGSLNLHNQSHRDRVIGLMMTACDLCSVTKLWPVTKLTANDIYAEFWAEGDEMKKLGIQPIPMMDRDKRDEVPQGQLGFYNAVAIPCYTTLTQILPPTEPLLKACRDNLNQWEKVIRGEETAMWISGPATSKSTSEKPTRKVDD

How the values were obtained:
hPDE10A2 = hPDE10A2 (Homo sapiens, UniProt Q9Y233); assay: In vitro assay PDE10A, human recombinant enzyme (SPA, 3H-cAMP); format: biochemical; details: -log IC50 expressed in mol/L; 60 nM cAMP
plasma proteins = assay: Plasma protein binding by equilibrium dialysis; details: human plasma (males)
[1] = Pharmacokinetics of oral microdose in healthy subjects; details: single oral dose of 100 μg, fasted
rPDE10A2 = rPDE10A2 (Rattus norvegicus, UniProt Q9QYJ6); assay: In vitro assay PDE10A, rat recombinant enzyme (SPA, 3H-cAMP); format: biochemical; details: -log IC50 expressed in mol/L; 60 nM cAMP
[2] = tested on: apomorphine-induced stereotypy; assay: Apomorphine-induced stereotypy in rats (APO); format: in vivo, rat; details: apomorphine 1.0 mg/kg i.v., 1 hour pre-treatment with test compound, dose at which 50% of animals show the effect

With `COCCc1ccc(-c2c(C)nc3c(N4CCOCC4)ccnn23)cn1` the “PDE10A2 pIC50 - human enzyme” value (hPDE10A2) was 7.22, the “Average percentage of free compound in plasma” value (plasma proteins; 0.1 μg/ml) was 17.6% and the “Average percentage of free compound in plasma” value (plasma proteins; 1 μg/ml) was 18.2%. The “Average percentage of free compound in plasma” value (plasma proteins; 2 μg/ml) was 17.9%, the “Average percentage of free compound in plasma” value (plasma proteins; 5 μg/ml) was 18.4% and the tmax ([1]; Median (Min-Max)) was 0.50 (0.50-0.75) h. For the same compound, the AUClast ([1]; mean) was 0.595 ng·h/mL, the “AUC∞” value ([1]; mean) was 0.665 ng·h/mL and the Cmax ([1]; mean) was 0.367 ng/mL. For the same compound, the t1/2 ([1]; mean) was 5.4 h, the λz ([1]; mean) was 0.158 h⁻¹ and the CL/F ([1]; mean, listed as compound 1 of WO2011/051342) was 183 ± 90.8 L/h and 183 L/h.

For `Cc1nc2c(N3CCOCC3)ccnn2c1-c1ccc(C2CCOCC2)nc1`, the “PDE10A2 pIC50 - rat enzyme” value (rPDE10A2) was 7.5.

For `Cc1nc2c(N3CCOCC3)nccn2c1-c1ccc(C2CCOCC2)nc1`, the “PDE10A2 pIC50 - human enzyme” value (hPDE10A2) was 6.78, the “PDE10A2 pIC50 - rat enzyme” value (rPDE10A2) was 6.83 and the “APO ED50” value [2] was 1.0 mg/kg.

In the case of `COCCc1ccc(-c2c(C)nc3c(N4CCOCC4)nccn23)cn1`, the “APO ED50” value [2] is reported as 1.0 mg/kg.
